The text below walks through data of US20230173042A1, “METHODS OF TREATMENT WITH ASPARAGINASE” (JAZZ PHARMACEUTICALS IRELAND LTD., priority 2017, published 2023).

SMILES strings stand for the structures.

Holding throughout (experiment): Combination (synergy) cell proliferation assay with pegcrisantaspase
Holding throughout (type): cell-based

The subject of one assay is KG-1. Conditions: anti-cancer agent in combination with pegcrisantaspase; KG-1 (AML). The procedure:
(§1) Plate preparation. The stocks of the mixtures and single agents were diluted in DMSO or 0.9% sodium chloride to generate a 7-points dose-response series. After further 31.6 times dilution in 20 mM sterile Hepes buffer pH 7.4 (reference compounds) or medium (pegcrisantaspase), 5 μl of pegcrisantaspase solution, and 5 μl of reference compound was added to 40 μl pre-plated cells in duplicate in a 384-well assay plate. The final DMSO concentration during incubation was 0.4% in all wells.
(§2) Cell proliferation assay. A cell assay stock was thawed and diluted in appropriate medium and dispensed in a 384-well plate, depending on the cell line used, at a concentration of 800-3200 cells per well in […]: i.e., DB: 800 cells per well; RL: 1000 cells per well; MV-4-11: 1600 cells per well; KG-1, HL-60 and HT 3200 cells per well. For each used cell line the cell density was optimized previously. The margins of the plate were filled with phosphate-buffered saline. Plated cells were incubated in a humidified atmosphere of 5% CO2 at 37° C. After 24 hours, 5 μl of pegcrisantaspase solution, and 5 μl of reference compound was added, and plates were further incubated for another 72 hours. After 72 hours, plates were cooled in 30 minutes to room temperature and 25 μl of ATPlite 1Step™ (PerkinElmer) solution was added to each well, and subsequently shaken for 2 minutes. After 5 minutes of incubation in the dark at room temperature, the luminescence was recorded on an Envision multimode reader (PerkinElmer).
(§3) Controls: t=0 signal. On a parallel plate, 40 μl cells were dispensed in quadruplicate and incubated in a humidified atmosphere of 5% CO2 at 37° C. After 24 hours, plates were cooled to room temperature in 30 minutes. 5 μl DMSO-containing Hepes buffer, 5 μl 0.9% sodium chloride-containing medium and 25 μl ATPlite 1Step™ solution were added and subsequently mixed for 2 minutes. Luminescence was measured after 10 minute incubation (=luminescencet=0) in the dark.
(§4) Cell growth control. The cellular doubling times of all cell lines are calculated from the t=0 hours and t=end growth signals of the untreated cells. […]
(§5) Maximum signals. On each 384-well plate, the maximum luminescence was recorded after incubation for 72 hours without compound in the presence of 0.4% DMSO. […] This average is defined as: luminescenceuntreated,t=72h. […]
(§6) luminescence=bottom+(top-bottom)/(1+10^(logIC50−log[cpd])−hill))
(§7) [cpd] is the compound concentration tested. hill is the Hill-coefficient. […] The CI is one of the most widely used quantitative indications of synergy. […]
(§8) CI is defined for a certain percentage cell viability (V), which is the signal related to a non-exposed control: V=100%×luminescencetreated,t=72h/luminescenceuntreated,t=72h. […]

In the next assay the test system is HL-60 cell line. Conditions: anti-cancer agent in combination with pegcrisantaspase; HL-60 (AML). The procedure: as §1, §2, §3, §4, §5, §6, §7, §8
The subject of another assay is HT. Conditions: anti-cancer agent in combination with pegcrisantaspase; HT (DLBCL). The procedure: as §1, §2, §3, §4, §5, §6, §7, §8
The subject of another assay is DB. Particulars: anti-cancer agent in combination with pegcrisantaspase; DB (DLBCL). The procedure: as §1, §2, §3, §4, §5, §6, §7, §8

Turning to `CC(C)C[C@H](NC(=O)[C@H](Cc1ccccc1)NC(=O)c1cnccn1)B(O)O` [bortezomib], the results for the “conclusion (synergy)” value in the assay with KG-1 and in the assay with HL-60 cell line were “synergy (CI < 1.0: synergy)” and “antagonism”, respectively.

Turning to `CC[C@]1(O)C[C@H]2CN(CCc3c([nH]c4ccccc34)[C@@](C(=O)OC)(c3cc4c(cc3OC)N(C=O)[C@H]3[C@@](O)(C(=O)OC)[C@H](OC(C)=O)[C@]5(CC)C=CCN6CC[C@]43[C@@H]65)C2)C1` [vincristine], the “conclusion (synergy)” value in the assay with HT is reported as “synergy (CI < 1.0: synergy)”; in the assay with DB, “strong synergy (CI < 0.3: strong synergy)”.
